Measurements as given in article PMC12430830, “Discovery of a Novel Cyclopeptide as Tyrosinase Inhibitor for Skin Lightening” (Skin Research and Technology, 2025).

Test system: human melanocyte cells

`NC[C@H]1CC[C@H](C(=O)O)CC1` [tranexamic acid] was tested, and the cell viability was “above 90%”.
